By UniProt entry, the sequences of proteins in these tests, tags left out.
UniProt Q96SW2, whole entry: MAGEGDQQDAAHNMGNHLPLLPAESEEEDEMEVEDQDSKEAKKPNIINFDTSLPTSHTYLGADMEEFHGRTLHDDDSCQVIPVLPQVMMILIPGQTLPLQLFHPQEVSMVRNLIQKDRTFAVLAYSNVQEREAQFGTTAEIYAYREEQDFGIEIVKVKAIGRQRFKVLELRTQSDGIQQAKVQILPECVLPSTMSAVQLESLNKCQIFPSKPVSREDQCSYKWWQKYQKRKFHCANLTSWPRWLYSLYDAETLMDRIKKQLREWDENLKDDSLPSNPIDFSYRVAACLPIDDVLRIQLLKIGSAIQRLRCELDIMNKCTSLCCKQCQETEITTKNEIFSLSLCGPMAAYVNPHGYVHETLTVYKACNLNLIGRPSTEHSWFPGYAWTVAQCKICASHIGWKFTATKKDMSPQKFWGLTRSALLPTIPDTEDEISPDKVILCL
UniProt P48729, whole entry: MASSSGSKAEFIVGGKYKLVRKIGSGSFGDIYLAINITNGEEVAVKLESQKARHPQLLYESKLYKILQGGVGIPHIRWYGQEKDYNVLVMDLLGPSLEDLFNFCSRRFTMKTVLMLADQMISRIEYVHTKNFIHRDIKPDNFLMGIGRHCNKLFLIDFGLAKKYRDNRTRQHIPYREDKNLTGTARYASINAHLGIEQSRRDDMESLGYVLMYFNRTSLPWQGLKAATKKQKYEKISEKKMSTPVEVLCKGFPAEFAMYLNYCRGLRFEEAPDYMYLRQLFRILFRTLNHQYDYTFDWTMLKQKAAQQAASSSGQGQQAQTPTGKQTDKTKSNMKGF
UniProt P15170, whole entry: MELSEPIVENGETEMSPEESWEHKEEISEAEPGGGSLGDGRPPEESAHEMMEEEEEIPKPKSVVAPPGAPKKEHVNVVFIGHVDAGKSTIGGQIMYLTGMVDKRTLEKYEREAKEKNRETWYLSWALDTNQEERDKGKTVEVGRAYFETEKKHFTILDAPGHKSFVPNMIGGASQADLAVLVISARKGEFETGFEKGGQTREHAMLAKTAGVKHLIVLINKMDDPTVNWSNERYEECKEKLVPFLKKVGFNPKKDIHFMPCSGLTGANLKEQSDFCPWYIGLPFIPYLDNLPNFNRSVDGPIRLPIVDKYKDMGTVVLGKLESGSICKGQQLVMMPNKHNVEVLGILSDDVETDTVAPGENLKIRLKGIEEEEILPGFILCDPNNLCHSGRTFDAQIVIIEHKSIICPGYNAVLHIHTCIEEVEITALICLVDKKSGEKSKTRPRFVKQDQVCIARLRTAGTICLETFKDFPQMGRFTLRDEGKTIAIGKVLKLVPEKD
UniProt Q13422, whole entry: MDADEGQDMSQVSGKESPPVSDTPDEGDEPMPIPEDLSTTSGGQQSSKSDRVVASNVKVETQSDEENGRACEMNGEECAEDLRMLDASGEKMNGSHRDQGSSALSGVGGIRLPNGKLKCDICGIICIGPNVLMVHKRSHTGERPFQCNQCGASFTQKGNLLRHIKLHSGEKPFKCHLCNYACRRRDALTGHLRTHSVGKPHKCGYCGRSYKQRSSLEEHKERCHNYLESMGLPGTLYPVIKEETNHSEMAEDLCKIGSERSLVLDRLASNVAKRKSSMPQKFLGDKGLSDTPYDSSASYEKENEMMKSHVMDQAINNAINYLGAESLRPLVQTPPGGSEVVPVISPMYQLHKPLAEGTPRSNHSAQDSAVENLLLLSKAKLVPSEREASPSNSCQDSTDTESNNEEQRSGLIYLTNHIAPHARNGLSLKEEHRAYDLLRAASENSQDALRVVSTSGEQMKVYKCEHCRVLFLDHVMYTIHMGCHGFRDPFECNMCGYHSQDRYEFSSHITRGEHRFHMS
UniProt Q9UKS7, whole entry: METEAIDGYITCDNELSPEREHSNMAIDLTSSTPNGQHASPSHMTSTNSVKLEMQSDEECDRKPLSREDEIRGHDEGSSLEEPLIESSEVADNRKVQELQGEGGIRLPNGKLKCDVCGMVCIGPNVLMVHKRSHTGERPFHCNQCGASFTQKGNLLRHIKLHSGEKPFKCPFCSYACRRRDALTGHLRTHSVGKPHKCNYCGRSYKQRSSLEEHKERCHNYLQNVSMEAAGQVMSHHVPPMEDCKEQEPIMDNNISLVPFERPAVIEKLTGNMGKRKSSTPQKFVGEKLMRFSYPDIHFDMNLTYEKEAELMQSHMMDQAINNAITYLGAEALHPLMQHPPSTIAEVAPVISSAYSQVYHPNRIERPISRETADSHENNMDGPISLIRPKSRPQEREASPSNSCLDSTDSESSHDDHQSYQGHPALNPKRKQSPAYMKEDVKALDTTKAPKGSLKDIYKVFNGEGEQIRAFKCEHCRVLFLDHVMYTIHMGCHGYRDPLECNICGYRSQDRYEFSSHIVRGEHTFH
UniProt Q9UKT9, whole entry: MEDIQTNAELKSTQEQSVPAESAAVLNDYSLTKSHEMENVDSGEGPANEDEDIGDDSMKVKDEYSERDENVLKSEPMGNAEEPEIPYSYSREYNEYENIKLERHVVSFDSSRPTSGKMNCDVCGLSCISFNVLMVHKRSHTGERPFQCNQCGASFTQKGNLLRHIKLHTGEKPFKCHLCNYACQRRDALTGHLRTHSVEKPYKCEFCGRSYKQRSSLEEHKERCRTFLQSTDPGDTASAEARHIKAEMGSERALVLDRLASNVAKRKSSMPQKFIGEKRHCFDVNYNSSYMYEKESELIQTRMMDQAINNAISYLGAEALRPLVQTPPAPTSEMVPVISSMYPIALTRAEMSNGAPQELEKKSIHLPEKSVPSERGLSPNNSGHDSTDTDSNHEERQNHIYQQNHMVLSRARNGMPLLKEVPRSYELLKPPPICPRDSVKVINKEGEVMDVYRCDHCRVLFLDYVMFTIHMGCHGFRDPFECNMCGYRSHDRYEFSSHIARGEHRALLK
UniProt P30291, whole entry: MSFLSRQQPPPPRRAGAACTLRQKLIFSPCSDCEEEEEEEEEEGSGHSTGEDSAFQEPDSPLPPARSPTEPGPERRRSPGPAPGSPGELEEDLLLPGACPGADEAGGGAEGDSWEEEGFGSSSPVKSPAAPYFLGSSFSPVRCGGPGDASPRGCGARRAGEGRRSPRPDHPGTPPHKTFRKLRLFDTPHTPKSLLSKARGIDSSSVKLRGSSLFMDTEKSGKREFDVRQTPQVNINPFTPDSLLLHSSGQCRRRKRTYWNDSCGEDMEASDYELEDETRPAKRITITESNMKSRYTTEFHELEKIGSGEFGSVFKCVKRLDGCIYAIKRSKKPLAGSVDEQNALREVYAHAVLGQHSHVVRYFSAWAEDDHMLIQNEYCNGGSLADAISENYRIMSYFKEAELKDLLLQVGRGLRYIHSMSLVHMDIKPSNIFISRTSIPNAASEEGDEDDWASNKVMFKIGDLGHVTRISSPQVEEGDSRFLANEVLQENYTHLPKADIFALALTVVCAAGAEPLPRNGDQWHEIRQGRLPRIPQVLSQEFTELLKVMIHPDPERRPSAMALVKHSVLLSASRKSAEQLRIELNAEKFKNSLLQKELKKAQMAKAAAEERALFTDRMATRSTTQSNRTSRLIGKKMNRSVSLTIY
UniProt Q16531, whole entry partner: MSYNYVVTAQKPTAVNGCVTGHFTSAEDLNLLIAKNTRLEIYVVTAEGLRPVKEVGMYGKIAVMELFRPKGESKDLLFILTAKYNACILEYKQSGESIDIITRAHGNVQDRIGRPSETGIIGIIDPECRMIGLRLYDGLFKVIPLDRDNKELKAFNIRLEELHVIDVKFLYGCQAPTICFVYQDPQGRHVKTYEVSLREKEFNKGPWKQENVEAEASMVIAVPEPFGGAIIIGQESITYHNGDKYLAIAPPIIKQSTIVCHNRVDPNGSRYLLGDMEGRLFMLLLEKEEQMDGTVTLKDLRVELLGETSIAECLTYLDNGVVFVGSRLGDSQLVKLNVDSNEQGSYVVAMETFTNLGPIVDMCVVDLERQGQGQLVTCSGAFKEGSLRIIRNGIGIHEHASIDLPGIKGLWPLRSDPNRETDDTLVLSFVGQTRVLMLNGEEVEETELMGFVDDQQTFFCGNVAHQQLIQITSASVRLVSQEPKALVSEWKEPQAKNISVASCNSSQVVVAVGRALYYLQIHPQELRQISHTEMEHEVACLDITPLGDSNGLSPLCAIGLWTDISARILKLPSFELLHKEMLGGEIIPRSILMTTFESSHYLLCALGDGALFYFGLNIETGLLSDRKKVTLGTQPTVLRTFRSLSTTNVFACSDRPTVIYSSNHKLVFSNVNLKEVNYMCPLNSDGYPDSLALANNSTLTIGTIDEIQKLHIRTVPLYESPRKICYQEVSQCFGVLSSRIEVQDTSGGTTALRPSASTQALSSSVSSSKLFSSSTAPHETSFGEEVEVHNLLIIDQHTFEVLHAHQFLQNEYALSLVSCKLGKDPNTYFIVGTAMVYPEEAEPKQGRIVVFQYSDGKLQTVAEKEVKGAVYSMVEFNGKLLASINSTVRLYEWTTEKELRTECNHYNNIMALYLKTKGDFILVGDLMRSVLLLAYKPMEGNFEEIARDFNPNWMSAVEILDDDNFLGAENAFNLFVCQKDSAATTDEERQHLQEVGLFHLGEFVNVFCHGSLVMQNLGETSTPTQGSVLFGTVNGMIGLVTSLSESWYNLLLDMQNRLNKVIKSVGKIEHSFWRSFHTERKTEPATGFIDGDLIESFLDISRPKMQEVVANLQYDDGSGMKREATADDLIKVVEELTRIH

In patent EP4834897A1, “COMPOUNDS WITH TWO AZAHETEROCYCLES SUBSTITUTED ISOINDOLINONE SKELETON AND USES THEREOF” (dated 2026):

biological target: CRBN (Homo sapiens, UniProt Q96SW2); assay: CRBN binding affinity by HTRF (CEREBLON BINDING kit); details: CRBN binding, HTRF, compound at 0.5 µM

Structure (SMILES) | Inhibition Rate at 0.5 µM (%)
O=C1CCC(N2Cc3ccc(C(=O)N4CCC(N5CCN(C(c6ccccc6)c6ccccc6)CC5)C(F)(F)C4)cc3C2=O)C(=O)N1 (stereo not drawn) | a2 (20% < a2 ≤ 30%)
O=C1CCC(N2Cc3ccc(C(=O)N4CCC(N5CC=C(c6cccc(Cl)c6Cl)CC5)C(F)(F)C4)cc3C2=O)C(=O)N1 (stereo not drawn) | a3 (30% < a3 ≤ 40%)
O=C1CCC(N2Cc3ccc(CN4CCC(N5CCN(C(c6ccccc6)c6ccccn6)CC5)C(F)(F)C4)cc3C2=O)C(=O)N1 (stereo not drawn) | a3 (30% < a3 ≤ 40%)
O=C1CCC(N2Cc3cc(CCN4CCC(N5CCN(c6noc7cc(F)ccc67)CC5)C(F)(F)C4)ccc3C2=O)C(=O)N1 (stereo not drawn) | a5 (53% < a5 ≤ 60%)
O=C1CCC(N2Cc3ccc(CN4CCC(N5CC=C(c6cccc(Cl)c6Cl)CC5)C(F)(F)C4)cc3C2=S)C(=O)N1 (stereo not drawn) | a4 (40% < a4 ≤ 53%)
CC1(C)CCC(C(=O)N2CCN(C3CCN(Cc4cccc5c4C(=O)N(C4CCC(=O)NC4=O)C5=O)CC3(F)F)CC2)=C(c2ccc(Cl)cc2)C1 (stereo not drawn) | a1 (10% < a1 ≤ 20%)

same assay, conditions: CRBN binding, HTRF, compound at 2 µM

Structure (SMILES) | Inhibition Rate at 2 µM (%)
O=C1CCC(N2Cc3ccc(C(=O)N4CCC(N5CCN(C(c6ccccc6)c6ccccc6)CC5)C(F)(F)C4)cc3C2=O)C(=O)N1 (stereo not drawn) | a6 (60% < a6 ≤ 70%)
O=C1CCC(N2Cc3ccc(C(=O)N4CCC(N5CC=C(c6cccc(Cl)c6Cl)CC5)C(F)(F)C4)cc3C2=O)C(=O)N1 (stereo not drawn) | a7 (70% < a7 ≤80%)
O=C1CCC(N2Cc3ccc(CN4CCC(N5CCN(C(c6ccccc6)c6ccccn6)CC5)C(F)(F)C4)cc3C2=O)C(=O)N1 (stereo not drawn) | a7 (70% < a7 ≤80%)
O=C1CCC(N2Cc3cc(CCN4CCC(N5CCN(c6noc7cc(F)ccc67)CC5)C(F)(F)C4)ccc3C2=O)C(=O)N1 (stereo not drawn) | a8 (80% < a8 ≤100%)
O=C1CCC(N2Cc3ccc(CN4CCC(N5CC=C(c6cccc(Cl)c6Cl)CC5)C(F)(F)C4)cc3C2=S)C(=O)N1 (stereo not drawn) | a7 (70% < a7 ≤80%)
CC1(C)CCC(C(=O)N2CCN(C3CCN(Cc4cccc5c4C(=O)N(C4CCC(=O)NC4=O)C5=O)CC3(F)F)CC2)=C(c2ccc(Cl)cc2)C1 (stereo not drawn) | a5 (53% < a5 ≤ 60%)

biological target: CK1α (Homo sapiens, UniProt P48729+Q96SW2); assay: Western blot assay of substrate protein degradation in hPBMCs; details: 24 hours treatment, compounds at 50 nM and 500 nM (concentration behind the class not stated)

Structure (SMILES) | substrate protein remaining % (CK1a)
O=C1CCC(N2Cc3ccc(C(=O)N4CCC(N5CCN(C(c6ccccc6)c6ccccc6)CC5)C(F)(F)C4)cc3C2=O)C(=O)N1 (stereo not drawn) | A (0% ≤ substrate protein remaining % ≤ 80%)
O=C1CCC(N2Cc3ccc(C(=O)N4CCC(N5CC=C(c6cccc(Cl)c6Cl)CC5)C(F)(F)C4)cc3C2=O)C(=O)N1 (stereo not drawn) | A (0% ≤ substrate protein remaining % ≤ 80%)
O=C1CCC(N2Cc3ccc(CN4CCC(N5CCN(C(c6ccccc6)c6ccccn6)CC5)C(F)(F)C4)cc3C2=O)C(=O)N1 (stereo not drawn) | A (0% ≤ substrate protein remaining % ≤ 80%)
O=C1CCC(N2Cc3cc(CCN4CCC(N5CCN(c6noc7cc(F)ccc67)CC5)C(F)(F)C4)ccc3C2=O)C(=O)N1 (stereo not drawn) | A (0% ≤ substrate protein remaining % ≤ 80%)
O=C1CCC(N2Cc3ccc(CN4CCC(N5CC=C(c6cccc(Cl)c6Cl)CC5)C(F)(F)C4)cc3C2=S)C(=O)N1 (stereo not drawn) | B (80%< substrate protein remaining %≤ 100%)
CC1(C)CCC(C(=O)N2CCN(C3CCN(Cc4cccc5c4C(=O)N(C4CCC(=O)NC4=O)C5=O)CC3(F)F)CC2)=C(c2ccc(Cl)cc2)C1 (stereo not drawn) | A (0% ≤ substrate protein remaining % ≤ 80%)

biological target: GSPT1 (Homo sapiens, UniProt P15170+Q96SW2); assay: as above; details: 24 hours treatment, compounds at 50 nM and 500 nM (concentration behind the class not stated)

Structure (SMILES) | substrate protein remaining % (GSPT1)
O=C1CCC(N2Cc3ccc(C(=O)N4CCC(N5CCN(C(c6ccccc6)c6ccccc6)CC5)C(F)(F)C4)cc3C2=O)C(=O)N1 (stereo not drawn) | A (0% ≤ substrate protein remaining % ≤ 80%)
O=C1CCC(N2Cc3ccc(C(=O)N4CCC(N5CC=C(c6cccc(Cl)c6Cl)CC5)C(F)(F)C4)cc3C2=O)C(=O)N1 (stereo not drawn) | A (0% ≤ substrate protein remaining % ≤ 80%)
O=C1CCC(N2Cc3ccc(CN4CCC(N5CCN(C(c6ccccc6)c6ccccn6)CC5)C(F)(F)C4)cc3C2=O)C(=O)N1 (stereo not drawn) | A (0% ≤ substrate protein remaining % ≤ 80%)
O=C1CCC(N2Cc3cc(CCN4CCC(N5CCN(c6noc7cc(F)ccc67)CC5)C(F)(F)C4)ccc3C2=O)C(=O)N1 (stereo not drawn) | A (0% ≤ substrate protein remaining % ≤ 80%)
O=C1CCC(N2Cc3ccc(CN4CCC(N5CC=C(c6cccc(Cl)c6Cl)CC5)C(F)(F)C4)cc3C2=S)C(=O)N1 (stereo not drawn) | A (0% ≤ substrate protein remaining % ≤ 80%)
CC1(C)CCC(C(=O)N2CCN(C3CCN(Cc4cccc5c4C(=O)N(C4CCC(=O)NC4=O)C5=O)CC3(F)F)CC2)=C(c2ccc(Cl)cc2)C1 (stereo not drawn) | A (0% ≤ substrate protein remaining % ≤ 80%)

biological target: IKZF1 (Homo sapiens, UniProt Q13422+Q96SW2); assay: as above; details: 24 hours treatment, compounds at 50 nM and 500 nM (concentration behind the class not stated)

Structure (SMILES) | substrate protein remaining % (IKZF 1)
O=C1CCC(N2Cc3ccc(C(=O)N4CCC(N5CCN(C(c6ccccc6)c6ccccc6)CC5)C(F)(F)C4)cc3C2=O)C(=O)N1 (stereo not drawn) | A (0% ≤ substrate protein remaining % ≤ 80%)
O=C1CCC(N2Cc3ccc(C(=O)N4CCC(N5CC=C(c6cccc(Cl)c6Cl)CC5)C(F)(F)C4)cc3C2=O)C(=O)N1 (stereo not drawn) | A (0% ≤ substrate protein remaining % ≤ 80%)
O=C1CCC(N2Cc3ccc(CN4CCC(N5CCN(C(c6ccccc6)c6ccccn6)CC5)C(F)(F)C4)cc3C2=O)C(=O)N1 (stereo not drawn) | B (80%< substrate protein remaining %≤ 100%)
O=C1CCC(N2Cc3cc(CCN4CCC(N5CCN(c6noc7cc(F)ccc67)CC5)C(F)(F)C4)ccc3C2=O)C(=O)N1 (stereo not drawn) | B (80%< substrate protein remaining %≤ 100%)
O=C1CCC(N2Cc3ccc(CN4CCC(N5CC=C(c6cccc(Cl)c6Cl)CC5)C(F)(F)C4)cc3C2=S)C(=O)N1 (stereo not drawn) | B (80%< substrate protein remaining %≤ 100%)
CC1(C)CCC(C(=O)N2CCN(C3CCN(Cc4cccc5c4C(=O)N(C4CCC(=O)NC4=O)C5=O)CC3(F)F)CC2)=C(c2ccc(Cl)cc2)C1 (stereo not drawn) | B (80%< substrate protein remaining %≤ 100%)

biological target: IKZF2 (Homo sapiens, UniProt Q96SW2+Q9UKS7); assay: as above; details: 24 hours treatment, compounds at 50 nM and 500 nM (concentration behind the class not stated)

Structure (SMILES) | substrate protein remaining % (IKZF2)
O=C1CCC(N2Cc3ccc(C(=O)N4CCC(N5CCN(C(c6ccccc6)c6ccccc6)CC5)C(F)(F)C4)cc3C2=O)C(=O)N1 (stereo not drawn) | B (80%< substrate protein remaining %≤ 100%)
O=C1CCC(N2Cc3ccc(C(=O)N4CCC(N5CC=C(c6cccc(Cl)c6Cl)CC5)C(F)(F)C4)cc3C2=O)C(=O)N1 (stereo not drawn) | A (0% ≤ substrate protein remaining % ≤ 80%)
O=C1CCC(N2Cc3ccc(CN4CCC(N5CCN(C(c6ccccc6)c6ccccn6)CC5)C(F)(F)C4)cc3C2=O)C(=O)N1 (stereo not drawn) | B (80%< substrate protein remaining %≤ 100%)
O=C1CCC(N2Cc3cc(CCN4CCC(N5CCN(c6noc7cc(F)ccc67)CC5)C(F)(F)C4)ccc3C2=O)C(=O)N1 (stereo not drawn) | B (80%< substrate protein remaining %≤ 100%)
O=C1CCC(N2Cc3ccc(CN4CCC(N5CC=C(c6cccc(Cl)c6Cl)CC5)C(F)(F)C4)cc3C2=S)C(=O)N1 (stereo not drawn) | A (0% ≤ substrate protein remaining % ≤ 80%)
CC1(C)CCC(C(=O)N2CCN(C3CCN(Cc4cccc5c4C(=O)N(C4CCC(=O)NC4=O)C5=O)CC3(F)F)CC2)=C(c2ccc(Cl)cc2)C1 (stereo not drawn) | A (0% ≤ substrate protein remaining % ≤ 80%)

biological target: IKZF3 (Homo sapiens, UniProt Q96SW2+Q9UKT9); assay: as above; details: 24 hours treatment, compounds at 50 nM and 500 nM (concentration behind the class not stated)

Structure (SMILES) | substrate protein remaining % (IKZF3)
O=C1CCC(N2Cc3ccc(C(=O)N4CCC(N5CCN(C(c6ccccc6)c6ccccc6)CC5)C(F)(F)C4)cc3C2=O)C(=O)N1 (stereo not drawn) | A (0% ≤ substrate protein remaining % ≤ 80%)
O=C1CCC(N2Cc3ccc(C(=O)N4CCC(N5CC=C(c6cccc(Cl)c6Cl)CC5)C(F)(F)C4)cc3C2=O)C(=O)N1 (stereo not drawn) | A (0% ≤ substrate protein remaining % ≤ 80%)
O=C1CCC(N2Cc3ccc(CN4CCC(N5CCN(C(c6ccccc6)c6ccccn6)CC5)C(F)(F)C4)cc3C2=O)C(=O)N1 (stereo not drawn) | B (80%< substrate protein remaining %≤ 100%)
O=C1CCC(N2Cc3cc(CCN4CCC(N5CCN(c6noc7cc(F)ccc67)CC5)C(F)(F)C4)ccc3C2=O)C(=O)N1 (stereo not drawn) | A (0% ≤ substrate protein remaining % ≤ 80%)
O=C1CCC(N2Cc3ccc(CN4CCC(N5CC=C(c6cccc(Cl)c6Cl)CC5)C(F)(F)C4)cc3C2=S)C(=O)N1 (stereo not drawn) | B (80%< substrate protein remaining %≤ 100%)
CC1(C)CCC(C(=O)N2CCN(C3CCN(Cc4cccc5c4C(=O)N(C4CCC(=O)NC4=O)C5=O)CC3(F)F)CC2)=C(c2ccc(Cl)cc2)C1 (stereo not drawn) | A (0% ≤ substrate protein remaining % ≤ 80%)

biological target: WEE1 (Homo sapiens, UniProt P30291+Q96SW2); assay: as above; details: 24 hours treatment, compounds at 50 nM and 500 nM (concentration behind the class not stated)

Structure (SMILES) | substrate protein remaining % (WEE1)
O=C1CCC(N2Cc3ccc(C(=O)N4CCC(N5CCN(C(c6ccccc6)c6ccccc6)CC5)C(F)(F)C4)cc3C2=O)C(=O)N1 (stereo not drawn) | A (0% ≤ substrate protein remaining % ≤ 80%)
O=C1CCC(N2Cc3ccc(C(=O)N4CCC(N5CC=C(c6cccc(Cl)c6Cl)CC5)C(F)(F)C4)cc3C2=O)C(=O)N1 (stereo not drawn) | A (0% ≤ substrate protein remaining % ≤ 80%)
O=C1CCC(N2Cc3ccc(CN4CCC(N5CCN(C(c6ccccc6)c6ccccn6)CC5)C(F)(F)C4)cc3C2=O)C(=O)N1 (stereo not drawn) | B (80%< substrate protein remaining %≤ 100%)
O=C1CCC(N2Cc3cc(CCN4CCC(N5CCN(c6noc7cc(F)ccc67)CC5)C(F)(F)C4)ccc3C2=O)C(=O)N1 (stereo not drawn) | B (80%< substrate protein remaining %≤ 100%)
O=C1CCC(N2Cc3ccc(CN4CCC(N5CC=C(c6cccc(Cl)c6Cl)CC5)C(F)(F)C4)cc3C2=S)C(=O)N1 (stereo not drawn) | B (80%< substrate protein remaining %≤ 100%)
CC1(C)CCC(C(=O)N2CCN(C3CCN(Cc4cccc5c4C(=O)N(C4CCC(=O)NC4=O)C5=O)CC3(F)F)CC2)=C(c2ccc(Cl)cc2)C1 (stereo not drawn) | A (0% ≤ substrate protein remaining % ≤ 80%)
